ChEMBL document CHEMBL3992491, “Discovery, structure-activity relationship studies, and anti-nociceptive effects of N-(1,2,3,4-tetrahydro-1-isoquinolinylmethyl)benzamides as novel opioid receptor agonists” (Eur J Med Chem, 2017)

Protein sequences, listed by entry. Tags and fused reporters are not part of them. Lines headed by an entry give the natural chain unless they say otherwise; changes in a name come on top.
UniProt P41145: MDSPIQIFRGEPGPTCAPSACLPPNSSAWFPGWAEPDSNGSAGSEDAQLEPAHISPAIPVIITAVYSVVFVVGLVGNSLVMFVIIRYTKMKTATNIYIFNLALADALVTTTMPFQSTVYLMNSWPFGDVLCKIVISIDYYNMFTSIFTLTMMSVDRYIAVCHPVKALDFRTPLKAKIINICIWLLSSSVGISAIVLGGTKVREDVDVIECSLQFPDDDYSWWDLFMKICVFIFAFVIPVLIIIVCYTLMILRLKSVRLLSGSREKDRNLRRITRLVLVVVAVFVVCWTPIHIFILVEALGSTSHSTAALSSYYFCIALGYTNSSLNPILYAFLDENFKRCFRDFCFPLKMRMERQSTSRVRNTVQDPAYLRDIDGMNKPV

Target: Kappa-type opioid receptor (Homo sapiens, UniProt P41145)
Test: Agonist activity at human KOR expressed in HEK293 cells assessed as inhibition of forskolin-induced adenylyl cyclase-mediated cAMP accumulation after 30 mins by HTRF assay
Type: functional, cell-based

CN(C(=O)Cc1ccc(Cl)c(Cl)c1)C1CCCCC1N1CCCC1 (stereo unspecified)
Imax: 91.4%
